Data: PubChem BioAssay AID652104 (National Center for Advancing Translational Sciences (NCATS), 2013)
The list shows a part of the results, in another mix than the full data. Records with an inconclusive call do not appear. Calls of active or inactive are those of the source. Calls follow the shape of the dose curve; as a rule, active = well fitted activation curve with a large enough effect; inconclusive = small, poorly fitted or top-dose-only effect, or another doubt; inactive = no such curve, though single readings can be large or run the other way.

Assay: qHTS of TDP-43 Inhibitors; also: % of control where 0% means no effect; nearly all actives have a fitted effect of over 50% in size
Conditions: TDP-43 expressing yeast growth rescue, BacTiter-Glo, 24 h; series mostly up to 46.1 µM

Compound	growth rescue (activation)
CN(C)C(=O)Oc1noc2ccccc12	inactive
O=c1c2cc([N+](=O)[O-])ccc2[nH]c2c([N+](=O)[O-])cc([N+](=O)[O-])cc12	inactive
c1ccc(-c2nn[nH]n2)c(-c2nn[nH]n2)c1	inactive
Cc1ccc(NP(=O)(Oc2cccc(C)c2)Oc2cccc(C)c2)nc1	inactive
O=C(NC1CCS(=O)(=O)C1)NP(=S)(Oc1ccccc1)Oc1ccccc1 (centres undefined)	inactive
CCNC(=S)/N=C(\N)N[N+](=O)[O-]	inactive: -9.14% [at 0.397 µM]
O=P1(N(CCCl)CCCl)OCCC2CCCCN21 (centres undefined)	inactive
Cc1ccccc1CN(C)C(=O)COC(=O)C(O)(c1ccccc1)c1ccccc1	inactive
C[C@@H]1C=CCP(=O)(Oc2ccccc2)O1 (some centres undefined)	inactive
C[C@H]1OP(=O)(Oc2ccccc2)C[C@@H]2O[C@@H]21 (some centres undefined)	inactive
N#C/C(=C\c1ccc(N(CCBr)CCBr)cc1)C(N)=O	inactive
CC(=O)c1ccc(N2CC2c2ccncc2)cc1 (centres undefined)	inactive
COC(=O)C1(C)COP(=O)(NCc2ccccc2)OC1 (centres undefined)	inactive
CC(=O)Nc1ccc([As](=O)(O)O)c(O)c1	inactive
CC(=O)Nc1ccc(Oc2c([N+](=O)[O-])cc([N+](=O)[O-])cc2[N+](=O)[O-])cc1	inactive
O=P1(Nc2nc3ccc(Cl)cc3s2)COc2ccccc2O1 (centres undefined)	inactive
CCOc1ccc(C2=NCC(CBr)S2)cc1 (centres undefined)	inactive
CC(C)(C)C(=O)NC(Sc1ccccc1)C(Cl)(Cl)Cl (centres undefined)	inactive
CCc1cc(O)c([N+](=O)[O-])c(C)c1[N+](=O)[O-]	inactive
Nc1cccc2c([As](=O)(O)O)cccc12	inactive

Compound	growth rescue (activation)
Cc1ccc(NCCc2c([N+](=O)[O-])cc([N+](=O)[O-])cc2[N+](=O)[O-])cc1	inactive
CCCOP(=S)(Nc1nc(N)cc(=O)[nH]1)OCCC	inactive
COc1cc(C2NCCC3(OCCO3)C2(C)C)cc(OC)c1OC (centres undefined)	inactive
CCOP(=O)(Nc1cccc2ccccc12)OCC	inactive
O=C(OC1CN2CCC1CC2)c1ccc(Cl)cc1 (centres undefined)	inactive: -3.52% [at 1.82 µM]
COc1cc(C(=O)NCC2(N3CCOCC3)CCCCC2)cc(Cl)c1OC(C)C	inactive
O=[As](O)(O)c1cccnc1	inactive
CS(=O)(=O)c1ccc(Cl)c(NC(=O)COC(=O)C(O)(c2ccccc2)c2ccccc2)c1	inactive
O=[As](O)(c1cccc(O)c1)c1cccc(O)c1	inactive
Cc1cccc(OCC(=O)OC2CN3CCC2CC3)c1 (centres undefined)	inactive
NC(=O)Nc1ccc([As](=O)(O)O)cc1	inactive
N#CCCN(C(=O)COC(=O)C(O)(c1ccccc1)c1ccccc1)c1ccc(F)cc1	inactive
CN(C(=O)Cc1ccccc1)[C@@H]1CC[C@]2(CCCO2)C[C@H]1N1CCCC1	inactive
CCOP1(=S)c2c(C)nn(CCC#N)c2N=C(c2ccc(F)cc2)N1C (centres undefined)	inactive
CN(C)C(=O)c1cc([N+](=O)[O-])cc2c1-c1c(cc([N+](=O)[O-])cc1[N+](=O)[O-])C2=O	inactive
O=[N+]([O-])c1ccc2c(c1)nnn2O	inactive
CN(C(=O)Cc1ccc(Cl)c(Cl)c1)[C@H]1CC[C@@]2(CCCO2)C[C@@H]1N1CCCC1	inactive
CCOP1(=S)c2c(C)nn(CCC#N)c2N=C(c2ccccc2F)N1C (centres undefined)	inactive
O=P(Nc1nccs1)(c1ccccc1)c1nc2ccccc2s1 (centres undefined)	inactive
O=P(Nc1nccs1)(Oc1ccccc1)Oc1ccccc1	inactive

Compound	growth rescue (activation)
CS(=O)(=O)c1cc([N+](=O)[O-])c2no[n+]([O-])c2c1	inactive
O=C(O)COc1ccc([As](=O)(O)O)cc1[N+](=O)[O-]	inactive
Nc1ccccc1[As](=O)(O)c1ccccc1	inactive
Cc1ccc(S(=O)(=O)N(CCCN)CCCc2c(C)nc(N)[nH]c2=O)cc1	inactive
O=P1(Nc2ncccn2)COc2ccccc2OC1	inactive
Nc1cccc([As](=O)(O)c2ccccc2)c1	inactive
NS(=O)(=O)c1cccc(NC(=O)COC(=O)C(O)(c2ccccc2)c2ccccc2)c1	inactive
O=P1(Nc2ccc(Br)cn2)COc2ccccc2OC1	inactive
O=[As](O)(c1cccs1)c1cccs1	inactive
Cc1ccc(OCC(=O)OC2CN3CCC2CC3)cc1 (centres undefined)	inactive
Cc1nn(-c2ccccc2)c2c1P(=O)(N1CCOCC1)N(C)C(c1ccccc1)=N2 (centres undefined)	inactive
Cc1ccc(C(=O)OC2CN3CCC2CC3)cc1 (centres undefined)	inactive
CC1CCC(C(C)C)C(OP(=O)(Nc2ccccn2)c2ccccc2)C1 (centres undefined)	inactive
CN(C)C1(CNC(=O)c2ccc(S(C)(=O)=O)cc2)CCCCC1	inactive
O=C(/C=C/c1ccccc1)OC1CN2CCC1CC2 (centres undefined)	inactive
CCCC1OP(=O)(Nc2ccccc2)OCC1CC (centres undefined)	inactive
COc1ccccc1CNC(=O)COC(=O)C(O)(c1ccccc1)c1ccccc1	inactive
CN(C(=O)Cc1ccc(Cl)c(Cl)c1)[C@@H]1CCCC[C@H]1N1CCCC1	inactive
CC(C)/C=N\N=C(\N)N[N+](=O)[O-]	inactive
